Assay results as given in patent US8506945B2, “Polymers with structure-defined functions” (Smith & Nephew, PLC., priority 2001, dated 2013).

Amino acid sequences for entries named in this document (tags omitted). Residues count along the entry.
UniProt P00760, 24-246: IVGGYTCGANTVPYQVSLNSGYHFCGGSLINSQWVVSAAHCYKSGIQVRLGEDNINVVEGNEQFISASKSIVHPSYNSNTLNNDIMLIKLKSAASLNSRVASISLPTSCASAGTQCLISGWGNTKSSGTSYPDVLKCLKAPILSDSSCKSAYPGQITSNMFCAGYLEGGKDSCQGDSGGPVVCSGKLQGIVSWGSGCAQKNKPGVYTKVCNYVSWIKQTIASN

Molecular target: T1, Trypsin (Bos taurus, UniProt P00760)
T1 construct: gene PRSS1
Conditions: 0.2M TRIS, 20° C., trypsin inhibition activity

NCCc1ccc(S(=O)(=O)F)cc1 [AEBSF, 4-(2-aminoethyl)benzenesulphonylfluoride]
course of inhibitive capacity over an 8-hour period: fell exponentially toward zero
